# PubChem BioAssay AID488896 (Broad Institute, 2010)
# Sequences of proteins named here, by UniProt entry; tags and fusion partners are left off.
# UniProt Q61009, whole entry: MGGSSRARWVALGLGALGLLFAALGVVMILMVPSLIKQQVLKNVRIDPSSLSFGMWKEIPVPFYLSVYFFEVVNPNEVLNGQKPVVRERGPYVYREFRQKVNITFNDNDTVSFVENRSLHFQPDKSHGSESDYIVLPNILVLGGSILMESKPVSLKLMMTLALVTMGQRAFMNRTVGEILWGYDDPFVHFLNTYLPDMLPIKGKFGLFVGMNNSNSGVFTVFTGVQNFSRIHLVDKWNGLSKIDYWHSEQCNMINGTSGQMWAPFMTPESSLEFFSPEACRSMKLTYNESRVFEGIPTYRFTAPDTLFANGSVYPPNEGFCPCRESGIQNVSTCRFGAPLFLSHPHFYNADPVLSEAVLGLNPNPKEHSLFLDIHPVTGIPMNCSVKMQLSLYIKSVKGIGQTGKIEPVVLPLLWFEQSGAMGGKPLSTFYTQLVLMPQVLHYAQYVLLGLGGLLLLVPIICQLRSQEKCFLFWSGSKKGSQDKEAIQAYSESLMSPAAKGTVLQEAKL
# The list shows a part of the results, in another mix than the full data. Calls of active or inactive are those of the source.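 The calls were made as follows: active = mean replicate inhibition of at least 70% and a set share of replicates each scoring 70 or more; inconclusive = meets just one of the two criteria; inactive = fails both criteria.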
# Molecular target: Scavenger receptor class B member 1 (Mus musculus) (UniProt Q61009)
# Test: inhibitors of SR-BI mediated HDL lipid uptake, primary screen, ldlA[mSR-BI] cells, fluorescence, single point (AID 488896);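 also: 0% = median of neutral control wells and 100% = median of positive control wells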
# Conditions: ldlA[mSR-BI] CHO cells, DiI-HDL uptake fluorescence, 3 h; at 12.5 µM; stronger effect = higher value
row,SMILES,inhibition
1,CCC(CO)(C(=O)OC1CN2CCC1CC2)c1ccccc1 (stereo unspecified),inactive: -20.7%
2,COc1cccc(C(=O)N(c2cc(C)cc(C)c2)C2CCN(C(=O)OC(C)(C)C)CC2)c1,inactive: 3.24%
3,COc1cc(OC)cc(C(=O)NCC2(N3CCOCC3)CCCCC2)c1,inactive: 6.24%
4,CN1CCC(Nc2ccc(Cl)cc2)CC1,inactive: -11.6%
5,CN1CCC(Nc2ccc(F)c(Cl)c2)CC1,inactive: -27.9%
6,CCOc1ncccc1C(=O)NCC1(N2CCOCC2)CCCCC1,inactive: -0.98%
7,CCCOc1ccc(C(=O)NCC2(N(C)C)CCCCC2)cc1,inactive: 8.44%
8,O=C(O)C1(Nc2ccccc2)CCN(Cc2ccccc2)CC1,inactive: -20.1%
9,CC(C)(C)OC(=O)N1CCC(Nc2ccccc2)CC1,inactive: 1.28%
10,CCN1CCC(Nc2cccc(F)c2)CC1,inactive: 8.36%
11,Cc1ccccc1NC1(C#N)CCN(Cc2ccccc2)CC1,inactive: -19.1%
12,CN(C)c1ccc(C(=O)NCC2(N3CCCCC3)CCCCC2)cc1,inactive: -2.96%
13,Cn1c(=O)[nH]cc(N(CCCl)CCCl)c1=O,inactive: -6.12%
14,O=C(NCC1(N2CCCCC2)CCCCC1)c1ccco1,inactive: -36.9%
15,CC(=O)N(c1ccccc1)C1CCNCC1,inactive: -14.8%
16,Cc1ccc(NC2(C#N)CCN(Cc3ccccc3)CC2)cc1,inactive: -3.93%
17,Fc1ccccc1NC1CCN(Cc2ccccc2)CC1,inactive: -3.95%
18,Cc1ccc(C(=O)NCC2(N3CCCCC3)CCCCC2)o1,inactive: -19.5%
19,CCCN1CCC(Nc2cc(OC)cc(OC)c2)CC1,inactive: -14.7%
20,Cc1cc(N(CCCl)CCCl)ccc1C=O,inactive: 28.3%
21,c1ccc(CN2CCC(Nc3ccccc3)CC2)cc1,inactive: 23.8%
22,CN(C)C1(CNC(=O)c2cccc(C#N)c2)CCCCC1,inactive: -9.98%
23,CC(C)(C)OC(=O)N1CCC(N(C(=O)c2ccccc2)c2ccc(Cl)cc2)CC1,inactive: 2.77%
24,N#Cc1ccc(C(=O)NCC2(N3CCCCC3)CCCCC2)cc1,inactive: -11.9%

row,SMILES,inhibition
1,N/C(=N\O)c1c(N)no[n+]1[O-],inactive: -9.99%
2,CCOC(=O)N1CCC(Nc2ccc(C)cc2)CC1,inactive: -10.4%
3,O=C(OC1CN2CCC1CC2)C1c2ccccc2C=Cc2ccccc21 (stereo unspecified),inactive: -18.3%
4,O=C(NCC1(N2CCOCC2)CCCCC1)c1cc(Br)ccc1Cl,inactive: 6.52%
5,COc1cc(C(=O)NCC2(N3CCOCC3)CCCCC2)cc(OC)c1C,inactive: 32.2%
6,COc1ccc(C(=O)NCC2(N3CCOCC3)CCCCC2)cc1OC,inactive: -16.9%
7,CN1CCC(Nc2cccc(F)c2)CC1,inactive: -14.2%
8,O=C(NCC1(N2CCCCC2)CCCCC1)c1cncc(Br)c1,inactive: 15.9%
9,CCCOc1ccc(C(=O)NCC2(N(C)C)CCCCC2)cc1OC,inactive: 7.26%
10,CN(C)c1cccc(C(=O)NCC2(N3CCCCC3)CCCCC2)c1,inactive: -24.1%
11,COc1ccc(CN(CCCl)CCCl)cc1Cl,inactive: -10.1%
12,CC(C)c1ccc(NC2CCN(C(=O)OC(C)(C)C)CC2)cc1,inactive: 4.39%
13,O=C(NCC1(N2CCOCC2)CCCCC1)c1cc(F)c(F)cc1Cl,inactive: 17.2%
14,COc1cc(OC)c(C(=O)NCC2(N(C)C)CCCCC2)cc1OC,inactive: -20.8%
15,COc1ccc(NC2CCN(C(=O)OC(C)(C)C)CC2)cc1,inactive: 20.9%
16,CC(C)c1ccc(C(=O)NCC2(N3CCOCC3)CCCCC2)cc1,inactive: 4.72%
17,CN1CCN(CCOC(=O)C(O)(c2ccccc2)c2ccccc2)CC1,inactive: -19.8%
18,O=C(NCC1(N2CCOCC2)CCCCC1)c1cc(=O)[nH]c2ccccc12,inactive: 2.58%
19,COc1cc(C(=O)NCC2(N3CCCCC3)CCCCC2)ccc1OC(F)F,inactive: -1.86%
20,O=C(NCC1(N2CCCCC2)CCCCC1)c1ccc(OC(F)F)cc1,inactive: -2.04%
21,CSc1ccc(C(=O)NCC2(N3CCOCC3)CCCCC2)cc1,inactive: 5.18%
22,O=C(NCC1(N2CCCCC2)CCCCC1)c1cccc([N+](=O)[O-])c1,inactive: -13.3%
23,N#CC1(Nc2ccccc2)CCN(CCc2ccccc2)CC1,inactive: -16.7%
24,CCN1CCC(Nc2ccc(Cl)cc2)CC1,inactive: -7.54%

row,SMILES,inhibition
1,CCOC(=O)N1CCC(Nc2cccc(C)c2)CC1,inactive: 42.5%
2,COc1cc(C(=O)NCC2(N(C)C)CCCCC2)ccc1OC(F)F,inactive: 4.36%
3,CCOc1ccc(C)cc1CN(CCCl)CCCl,inactive: 28.1%
4,O=C1CCN(Cc2ccccc2)CC1,inactive: -15.3%
5,CCOC(=O)N1CCC(Nc2ccc(F)cc2)CC1,inactive: -21.9%
6,COc1ccc(NC2CCN(CCc3ccccc3)CC2)c(OC)c1,inactive: -30.1%
7,CCCCOc1ccc(C(=O)NCC2(N3CCOCC3)CCCCC2)cc1,inactive: 15.7%
8,O=P1(N(CCCl)CCCl)SCCCS1,inactive: -0.261%
9,O=C(NCC1(N2CCCCC2)CCCCC1)c1ccc(F)cc1,inactive: -26.5%
10,O=C(NCC1(N2CCOCC2)CCCCC1)c1cc2ccccc2o1,inactive: 4.25%
11,Cc1cc(C)cc(N(C(=O)c2ccccc2)C2CCN(C(=O)OC(C)(C)C)CC2)c1,inactive: -15.4%
12,O=C(NCC1(N2CCCCC2)CCCCC1)c1ccc(Cl)nc1,inactive: -37.6%
13,CCOC(=O)N1CCC(Nc2ccc(OC)cc2)CC1,inactive: -21.6%
14,COc1ccc(Cl)cc1C(=O)NCC1(N2CCOCC2)CCCCC1,inactive: -4.26%
15,N#CC1(Nc2ccccc2)CCN(Cc2ccccc2)CC1,inactive: -17.3%
16,O=C(NCC1(N2CCCCC2)CCCCC1)c1ccc(Cl)s1,inactive: -2.36%
17,O=C(OC1CN2CCC1CC2)C1c2ccccc2Oc2ccccc21 (stereo unspecified),inactive: 10.7%
18,O=C(NCC1(N2CCCCC2)CCCCC1)c1cccs1,inactive: -6.53%
19,O=C(NCC1(N2CCCCC2)CCCCC1)c1ccc(=O)[nH]c1,inactive: -6.22%
20,COc1ccc(C(=O)NCC2(N3CCCCC3)CCCCC2)c(OC)c1OC,inactive: 0.242%
21,COc1ccc(C(=O)NCC2(N3CCCCC3)CCCCC2)cc1,inactive: -7.64%
22,Cc1cccc(NC2(C#N)CCN(Cc3ccccc3)CC2)c1,inactive: -12.1%
23,CSc1ccccc1C(=O)NCC1(N2CCCCC2)CCCCC1,inactive: -19.6%
